Results taken from US7923016.

Biological target: wild-type CXCL12-α (UniProt P48061)
Test: self-association (monomer-dimer); pulsed-field gradient NMR translational diffusion versus concentration, 20 mM sodium phosphate pH 7.4

wild-type CXCL12-α (from UniProt P48061 22-89) (ligand)
Kd: 120 µM
